Literature values, collected in patent US9938273B2 (Plexxikon Inc., priority 2015, dated 2018).

System: relapsed or chemotherapy-refractory FLT3-ITD+ AML patients
Conditions: phase II monotherapy; cited from earlier work

For `CC(C)(C)c1cc(NC(=O)Nc2ccc(-c3cn4c(n3)sc3cc(OCCN5CCOCC5)ccc34)cc2)no1` [quizartinib], the “composite complete remission (CRc) rate” value is given as “about 50%”.
